Literature values as cited in US10413482B2, “Delamination resistant pharmaceutical glass containers containing active pharmaceutical ingredients” (Corning Incorporated, priority 2011, dated 2019).

Test system: WISH cells and Vesicular Stomatitis virus
Settings: reference standard calibrated against WHO natural interferon beta standard

In the case of “Interferon beta-1a: 166 amino acid glycoprotein produced in Chinese Hamster Ovary cells”, the “specific activity (antiviral activity)” value is listed as “approximately 270 million international units (MIU) of antiviral activity per mg”.
